From patent US20040091907A1 (SUGEN, published 2004) come the findings set out here.

Chains of the proteins cited; added tags and fusions are not shown. Residues count along the entry.
UniProt O96013, 291-591: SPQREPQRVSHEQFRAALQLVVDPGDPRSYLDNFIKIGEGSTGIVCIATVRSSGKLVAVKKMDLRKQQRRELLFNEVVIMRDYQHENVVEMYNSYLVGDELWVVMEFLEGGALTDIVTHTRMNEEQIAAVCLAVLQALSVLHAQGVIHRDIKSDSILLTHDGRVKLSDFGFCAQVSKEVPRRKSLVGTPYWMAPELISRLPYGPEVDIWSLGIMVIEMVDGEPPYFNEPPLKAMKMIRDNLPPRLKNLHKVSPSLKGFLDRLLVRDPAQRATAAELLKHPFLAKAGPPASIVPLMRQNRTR

The target of assay [1] is T1, full-length myc-tagged PAK4 protein (human, UniProt O96013).
T1 construct: Over-expressed in 293T cells, used as cell lysate; also called exogenous PAK4
Put plainly: GST pull-down on glutathione beads from 293T lysate, myc immunoblot. As to the method:
(§1) An equivalent amount of beads and excess lysates (500 ug) were used. Eluates of beads and total lysates were analysed by SDS-PAGE and immunoblotted with myc or GEF-H1 antiserum; (c) represents a PAK4 gene schematic outlining the regions of PAK4 used to identify the GEF-H1 interaction domain (GID). d, alignment of the GID defined by the minimal binding region of PAK4 with PAK5 and PAK6.
(§2) These fusion proteins were bound to glutathione beads and utilized in binding assays with 293T lysates expressing exogenous PAK4.
(§3) The GST immobilized GEF-H1S polypeptide was used to conduct immunoprecipitation from the 293T cell extracts. The resulting protein complexes on the beads were identified by separating on SDS-PAGE followed by Western blotting to identify proteins that are present. The Western blot technique (Renart et al., Methods Enzymol., 104:455-60, 1984) is universally used to identify proteins using specific immunoreagents like antibodies. […] PAK4 was not present after immunoprecipitation with immobilized fusion partner GST. This interaction was limited by the presence or absence of GEF-H1S.

The target of assay [2] is T2, myc-tagged PAK4 kinase domain (amino acids 291-591) (human, UniProt O96013, in part).
T2 construct: Over-expressed in 293T cells, used as cell lysate
Described as above. As to the method:
as §1, §2, §3

B1: GST (Glutathione-S-transferase) (other, UniProt P08515 1-218, looked up)
chain: MSPILGYWKIKGLVQPTRLLLEYLEEKYEEHLYERDEGDKWRNKKFELGLEFPNLPYYIDGDVKLTQSMAIIRYIADKHNMLGGCPKERAEISMLEGAVLDIRYGVSRIAYSKDFETLKVDFLSKLPEMLKMFEDRLCHKTYLNGDHVTHPDFMLYDALDVVLYMDPMCLDAFPKLVCFKKRIEAIPQIDKYLKSSKYIAWPLQGWQATFGGGDHPPK
notes: Control; also called GST control protein; fusion partner GST
For B1, the binding result in assay [1] and in assay [2] was “no binding” in each case.
